# Reference: PubChem BioAssay AID1136 (Sanford-Burnham Center for Chemical Genomics, 2008)
# The chains behind the UniProt entries cited, without tags or fusion partners. Where a name states a change or a piece, a line headed by the entry shows the natural chain unless it says otherwise.
# UniProt P05186: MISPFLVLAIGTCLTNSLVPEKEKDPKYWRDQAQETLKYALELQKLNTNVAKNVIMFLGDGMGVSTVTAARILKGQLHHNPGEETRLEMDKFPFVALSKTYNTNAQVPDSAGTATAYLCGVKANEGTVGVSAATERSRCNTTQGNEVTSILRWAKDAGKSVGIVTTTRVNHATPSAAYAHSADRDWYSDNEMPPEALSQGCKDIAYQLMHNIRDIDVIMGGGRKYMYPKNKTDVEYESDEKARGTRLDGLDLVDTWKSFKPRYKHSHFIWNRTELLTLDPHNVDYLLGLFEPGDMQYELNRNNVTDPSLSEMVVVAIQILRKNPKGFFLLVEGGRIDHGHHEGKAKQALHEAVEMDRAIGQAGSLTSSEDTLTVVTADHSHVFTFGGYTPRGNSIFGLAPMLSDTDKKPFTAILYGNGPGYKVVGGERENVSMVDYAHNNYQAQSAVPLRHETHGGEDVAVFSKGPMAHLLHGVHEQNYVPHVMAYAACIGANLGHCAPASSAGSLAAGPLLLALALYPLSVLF
# Some of the results follow. Active and inactive are the calls of the source.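 Rule for the calls: active = activation factor at least 2 at 20 µM; inactive = the rest.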
# Biological target: Alkaline phosphatase, tissue-nonspecific isozyme (Homo sapiens) (UniProt P05186)
# Experiment: TNAP activators at high phosphate acceptor level, primary screen, biochemical, luminescence, uHTS (AID 1136)
# Settings: purified TNAP, CDP-star luminescence, 1 M DEA, 30 min; at 20 µM; stronger effect = higher value; 0 = EDTA background, 1 = DMSO-only activity
row,SMILES,activation factor
1,Cc1ccc(NCCc2c([N+](=O)[O-])cc([N+](=O)[O-])cc2[N+](=O)[O-])cc1,inactive: 0.8
2,CCOP1(=S)c2c(C)nn(CCC#N)c2N=C(c2ccccc2F)N1C (stereo not drawn),inactive: 1.1
3,O=[N+]([O-])c1ccc2c(c1)nnn2O,inactive: 1.1
4,CN(C)C1(CNC(=O)c2ccc(S(C)(=O)=O)cc2)CCCCC1,inactive: 1.1
5,CC1CCC(C(C)C)C(OP(=O)(Nc2ccccn2)c2ccccc2)C1 (stereo not drawn),inactive: 1.1
6,O=P1(Nc2ccc(Br)cn2)COc2ccccc2OC1,inactive: 1.1
7,CN(C(=O)Cc1ccc(Cl)c(Cl)c1)[C@@H]1CCCC[C@H]1N1CCCC1,inactive: 1.1
8,COP1(=S)c2c(C)nn(CCC#N)c2N=C(c2ccc(F)cc2)N1C (stereo not drawn),inactive: 1.1
9,CCC(C)N(CC(C)C)C(=S)SC(NC(C)=O)C(Cl)(Cl)Cl (stereo not drawn),inactive: 1.1
10,O=[N+]([O-])c1cc([N+](=O)[O-])c(-c2ccn[nH]2)s1,inactive: 0.9
11,COc1ccc2nc(NP(=O)(c3ccccc3)c3ccccc3)sc2c1,inactive: 1.1
12,O=C(OC1CN2CCC1CC2)C12CC3CC(CC(C3)C1)C2 (stereo not drawn),inactive: 1.1
13,O=[N+]([O-])c1cc([N+](=O)[O-])c(CCNc2ccccc2)c([N+](=O)[O-])c1,inactive: 0.9
14,CCc1nc2c(n1)c1c(non1O)c1c2no[n+]1[O-],inactive: 1.1
15,CC1CCN(C(=O)Oc2c(Cl)cc(Cl)c3cccnc23)CC1,inactive: 1.1
16,CC(C)=N/N=C(\N)N[N+](=O)[O-],inactive: 1.1
17,C(Cc1nn[nH]n1)Cc1nn[nH]n1,inactive: 1.1
18,O=c1c2cc([N+](=O)[O-])ccc2[nH]c2c([N+](=O)[O-])cc([N+](=O)[O-])cc12,inactive: 0.7
